Antibody variant affinities, Ab-14 heavy chain, assay 1

Target: peptide PDVDLGDISGINAS, taken from heptad repeat 2 (HR2) of SARS-CoV-2 spike.

Ab-14 is the parent antibody, in scFv form: VH, then the linker GGGGSGGGGSGGGGS, then VL. The light chain is unchanged in all variants.
VH: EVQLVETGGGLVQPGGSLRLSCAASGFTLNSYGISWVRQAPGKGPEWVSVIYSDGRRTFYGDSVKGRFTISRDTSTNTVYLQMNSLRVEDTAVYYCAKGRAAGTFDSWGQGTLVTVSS
VL: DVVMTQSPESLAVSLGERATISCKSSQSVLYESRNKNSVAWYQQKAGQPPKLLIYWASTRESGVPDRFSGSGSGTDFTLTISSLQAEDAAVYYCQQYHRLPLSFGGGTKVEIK

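Phage display of a naive human antibody library on the peptide gave the parent. In library AAYL49, one, two or three CDR residues were substituted; doubles and triples were drawn at random. The assay is AlphaSeq: two haploid yeast populations carry antibody and antigen on their surface. Mating (16 h, 30 °C) was followed by selection of diploids and sequencing of their barcodes. Scores were corrected for input abundance and mapped to Kd with protein pairs of known affinity run in the same pool. Mating was done three times.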

Sequences are complete VH domains. Numbers give log10(Kd / nM), so 0 is 1 nM and 3 is 1 µM. Smaller is tighter. Replicates are averaged; those with no signal do not enter the mean. "nd" marks a missing value. The strain was present, yet no cells mated with the target were sequenced in any replicate, which points to weak or no binding. Order: sorted from the lowest average up, undetected variants last. Nonspecific signal, from three strains lacking the peptide, appeared in 15% of pairings of library AAYL49, centred on 4.06 (5% of these signals below 2.83); values are not corrected for it.

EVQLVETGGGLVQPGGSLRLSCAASGFTLNSYGISWVRQAPGKGPEWVSVIYSDGRRTFYGDSVKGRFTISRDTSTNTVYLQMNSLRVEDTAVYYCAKVRAAATFDSWGQGTLVTVSS: 0.54 (3 of 3 replicates).
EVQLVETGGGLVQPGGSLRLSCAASGFTLNSYGISWVRQAPGKGPEWVSVIYADGRRTFYGDSVFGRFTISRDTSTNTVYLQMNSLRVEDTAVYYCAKGRAAGTFTSWGQGTLVTVSS: 0.75 (3 of 3 replicates).
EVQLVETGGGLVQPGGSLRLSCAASGFTLNKYGVSWVRQAPGKGPEWVSVIYSDGRRTFYGDSVKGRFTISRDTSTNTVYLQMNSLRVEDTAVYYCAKGRAAGTFDIWGQGTLVTVSS: 1.78 (3 of 3 replicates).
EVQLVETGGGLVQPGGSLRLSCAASGFTLNSYGISWVRQAPGKGPEWVSVIYVDGRRTFYGDSVKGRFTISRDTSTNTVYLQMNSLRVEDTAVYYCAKGRAAGTEDAWGQGTLVTVSS: 2.69 (3 of 3 replicates).
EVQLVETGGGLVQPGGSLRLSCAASGFTLNSYGISWVRQAPGKGPEWVSVMYSDGRRTFYYDSVKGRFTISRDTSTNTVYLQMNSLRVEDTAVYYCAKGRAAGTQDSWGQGTLVTVSS: 3.27 (1 of 3 replicates).
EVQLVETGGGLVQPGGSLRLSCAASGFFPNSYGISWVRQAPGKGPEWVSVIYSDGRSTFYGDSVKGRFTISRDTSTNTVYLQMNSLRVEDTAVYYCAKGRAAGTFDSWGQGTLVTVSS: 3.80 (1 of 3 replicates).
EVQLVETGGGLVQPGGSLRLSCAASGFTLNSYGISWVRQAPGKGPEWVSVIYSDGRRTFYDYSVKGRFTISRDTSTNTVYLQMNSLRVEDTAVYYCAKGRAAGTFDCWGQGTLVTVSS: 3.87 (1 of 3 replicates).
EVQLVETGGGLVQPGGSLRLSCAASGFTLNSYGIHWVRQAPGKGPEWVSVAYSDGRRTFYGDSVKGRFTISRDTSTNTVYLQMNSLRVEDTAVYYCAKRRAAGTFDSWGQGTLVTVSS: 4.07 (1 of 3 replicates).
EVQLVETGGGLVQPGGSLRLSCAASGFTLNSYGISWVRQAPGKGPEWVSVAYSDGRRTFYGDSVKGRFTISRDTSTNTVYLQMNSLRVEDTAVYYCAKMRAAITFDSWGQGTLVTVSS: 5.55 (1 of 3 replicates).
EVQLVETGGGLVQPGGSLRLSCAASGFTLNSYGISWVRQAPGKGPEWVSVIYSAGRRWFYGWSVKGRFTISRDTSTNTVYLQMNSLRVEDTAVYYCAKGRAAGTFDSWGQGTLVTVSS: nd (0 of 3 replicates).
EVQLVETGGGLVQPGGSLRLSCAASGFDCNSYGISWVRQAPGKGPEWVSVIYSDGRRTFYGDSVKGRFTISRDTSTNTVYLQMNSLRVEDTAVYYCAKKRAAGTFDSWGQGTLVTVSS: nd (0 of 3 replicates).
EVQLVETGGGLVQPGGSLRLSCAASGFTLNSYGISWVRQAPGKGPEWVSVDYSDGRRCFYGDSVKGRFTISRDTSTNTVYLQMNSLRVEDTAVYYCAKGRDAGTFDSWGQGTLVTVSS: nd (0 of 3 replicates).
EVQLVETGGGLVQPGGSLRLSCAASGFTLNSYGISWVRQAPGKGPEWVSVRYSRGRRTFYGDSVKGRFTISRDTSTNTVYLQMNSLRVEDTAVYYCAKGRAAGTNDSWGQGTLVTVSS: nd (0 of 3 replicates).
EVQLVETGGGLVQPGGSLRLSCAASGFTLNSYGISWVRQAPGKGPEWVSVIYSDGRTTFYGCSVKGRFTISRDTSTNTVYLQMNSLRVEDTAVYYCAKGRAAGTRDSWGQGTLVTVSS: nd (0 of 3 replicates).
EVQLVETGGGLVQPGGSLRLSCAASGHTLNSYGISWVRQAPGKGPEWVSVIYSDGRHTIYGDSVKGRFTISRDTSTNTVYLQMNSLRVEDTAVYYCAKGRAAGTFDSWGQGTLVTVSS: nd (0 of 3 replicates).
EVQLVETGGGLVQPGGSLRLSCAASGFTLNSYGISWVRQAPGKGPEWVSVIDSDGRRDCYGDSVKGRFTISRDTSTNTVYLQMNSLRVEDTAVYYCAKGRAAGTFDSWGQGTLVTVSS: nd (0 of 3 replicates).
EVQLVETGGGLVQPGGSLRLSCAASGFYLNSYGISWVRQAPGKGPEWVSVTYSCGRRTFYGDSVKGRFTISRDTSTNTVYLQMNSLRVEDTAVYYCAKGRAAGTFDSWGQGTLVTVSS: nd (0 of 3 replicates).
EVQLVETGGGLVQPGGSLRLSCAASGFTLNSYGISWVRQAPGKGPEWVSVIYSDGRRIFLGDSVKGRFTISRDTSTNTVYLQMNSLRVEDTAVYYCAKGRMAGTFDSWGQGTLVTVSS: nd (0 of 3 replicates).
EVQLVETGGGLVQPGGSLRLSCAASAFTLNSYGIDWVRQAPGKGPEWVSVIYSDGRRTFYGDSVKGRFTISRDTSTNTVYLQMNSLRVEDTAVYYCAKGRAAGCFDSWGQGTLVTVSS: nd (0 of 3 replicates).
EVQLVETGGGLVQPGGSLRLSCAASGFTLNSYGISWVRQAPGKGPEWVSVIYSEGRRAFYGDEVKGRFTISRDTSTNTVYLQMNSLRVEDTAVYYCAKGRAAGTFDSWGQGTLVTVSS: nd (0 of 3 replicates).

For reference, 2 entries of the list once more:

VH	mean, log10 nM	replicates with signal
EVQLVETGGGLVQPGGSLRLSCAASGFFPNSYGISWVRQAPGKGPEWVSVIYSDGRSTFYGDSVKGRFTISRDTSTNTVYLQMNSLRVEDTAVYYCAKGRAAGTFDSWGQGTLVTVSS	3.80	1 of 3
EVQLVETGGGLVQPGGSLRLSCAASGFTLNKYGVSWVRQAPGKGPEWVSVIYSDGRRTFYGDSVKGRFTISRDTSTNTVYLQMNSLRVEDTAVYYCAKGRAAGTFDIWGQGTLVTVSS	1.78	3 of 3

The measurements come from Engelhart et al. 2022 (doi:10.1038/s41597-022-01779-4) through the FLAb antibody collection.